# Values quoted from earlier work, collected in patent US20220033460A1, “IDENTIFICATION AND USE OF T CELL EPITOPES IN DESIGNING DIAGNOSTIC AND THERAPEUTIC APPROACHES FOR COVID-19” (priority 2020, published 2022).
# Biological target: T1, I-Ab (Mus musculus, UniProt P14434+P14483)
# T1 sequence (P14483 28-265): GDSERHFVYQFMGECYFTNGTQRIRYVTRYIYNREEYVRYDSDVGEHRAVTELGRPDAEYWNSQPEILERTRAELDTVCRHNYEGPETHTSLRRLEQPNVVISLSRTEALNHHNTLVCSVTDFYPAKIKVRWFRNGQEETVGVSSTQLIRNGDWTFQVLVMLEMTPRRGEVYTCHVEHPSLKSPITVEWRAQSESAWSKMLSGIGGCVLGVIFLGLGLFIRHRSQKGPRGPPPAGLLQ
# T1 sequence (P14434 24-256): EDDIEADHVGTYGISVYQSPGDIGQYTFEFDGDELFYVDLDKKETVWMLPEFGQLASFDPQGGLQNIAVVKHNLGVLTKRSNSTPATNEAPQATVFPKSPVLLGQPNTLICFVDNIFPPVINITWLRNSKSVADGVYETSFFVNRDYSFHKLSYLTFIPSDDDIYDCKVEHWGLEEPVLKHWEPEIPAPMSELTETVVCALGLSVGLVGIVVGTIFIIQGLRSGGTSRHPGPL
# Settings: I-Ab presented peptides cloned in MCR2 vector; read-out: IC50 (I-Ab binding affinity); cited from earlier work
sequence,measurement,value
FSLSAAVKAGASLID,IC50,638 nM
